The data set deals with rats. Description: Rat sleep-wake bioassay (EEG, EMG, locomotor activity, body temperature). In kind it is in vivo, Wistar rats. The note with it: administered at CT-18. The text has this:
Rats are a suitable model for human sleep because all compounds that are hypnotics in man have hypnotic effects in rats and vice versa. Edgar, D.M. "Drug Discovery and Evaluation Using the Advanced Technology Sleep-Wake Bioassay Laboratory at Stanford University" p. 4, December 1992. In addition, the rat model for human sleep has been accepted by peer-review committees at NIH Id. at 5. Furthermore, rat sleep and human sleep are fundamentally the same. Id. at 4. For example, the proportion of time spent in NREM versus REM sleep is about 4:1 in both rats and humans. Id. at 5.
Rat preparation, monitoring, and analysis of the data was conducted as described below. […] Body temperature and locomotor activity were monitored via a miniature transmitter (Minimitter) surgically placed in the abdomen. […]
The computers monitored the EEG, EMG, body temperature and non-specific locomotor activity (LMA) via telemetry, and drinking activity from 48 rats simultaneously. […] Drinking and LMA were recorded every 10 seconds, while body temperature was recorded every minute.
Therefore, time of treatment is important. […] By administering the drug at CT-5 when the propensity for REM sleep is greatest, the drug's effect on REM sleep can be measured more accurately. […]

We go through one compound from patent EP0701444B1, “METHODS AND COMPOSITIONS FOR INDUCING SLEEP” (Purdue Pharma Ltd., priority 1993, dated 1994).

Molecules are shown by their SMILES.

Turning to `Cc1nnc2n1-c1ccc(Cl)cc1C(c1ccccc1Cl)=NC2` [Triazolam], the “rebound reduction of NREM sleep” value was “showed a rebound reduction of NREM sleep”.
